Tests used:
[1] = system: ALK-rearranged (ALK^+) NSCLC; settings: first-line treatment; cited from earlier work
[2] = system: hEML4-ALK Tg mice (ALK^+ lung tumors); assay: Lung tumor volume by MRI and survival in hEML4-ALK Tg mice

CCc1cc2c(cc1N1CCC(N3CCOCC3)CC1)C(C)(C)c1[nH]c3cc(C#N)ccc3c1C2=O [alectinib]
time to disease progression in most patients [1]: three

C[C@@H](Oc1cc(-c2cnn(C3CCNCC3)c2)cnc1N)c1c(Cl)ccc(F)c1Cl [crizotinib]
tumor response at the end of treatment ([2]; crizotinib 40 mg/kg or lorlatinib 2 mg/kg, MRI): partial tumor regression
tumor regression at higher dosages ([2]; higher dose (crizotinib 100 mg/kg DIE)): almost complete tumor regression

From US20250057930A1, “ANAPLASTIC LYMPHOMA KINASE (ALK) CANCER VACCINES AND METHODS OF USE THEREOF” (The Children's Medical Center Corporation, priority 2022, published 2025)
